2 compounds from ChEMBL document CHEMBL1134465, “Synthesis and evaluation of pteroic acid-conjugated nitroheterocyclic phosphoramidates as folate receptor-targeted alkylating agents” (J Med Chem, 2001) can be followed below.

Experiment [1] has as its system A549. Kind of experiment: In vitro growth inhibition of human lung carcinoma cell line, A549 with low levels of folate receptors.
Experiment [2] has as its system A498. Kind of experiment: In vitro growth inhibition of human kidney carcinoma cell line, A498 with low levels of folate receptors.
The next experiment relates to HT-29. Kind of experiment: In vitro growth inhibition of human tumor cell line, HT-29. The experiment is classed as functional, cell-based. The method, boiled down:
(§1)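 Cells were seeded and grown 24 h at 37 °C in McCoy's 5A medium with 10% heat-inactivated FBS, penicillin 100 U/mL and streptomycin 100 μg/mL. Drug from DMSO stock was added in the same medium, with final DMSO <1%. Five serial 10-fold dilutions were tested, top final concentration 100 μg/mL.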

Experiment [3] can be described thus: In vitro growth inhibition of human breast adrenocarcinoma cell line, MDA-231 with over expressed folate receptors.
The next experiment has as its system MIA PaCa-2. Kind of experiment: In vitro growth inhibition of human tumor cell line, PACA2. It is filed as functional, cell-based. The method, boiled down:
as §1

A further experiment has as its system PC-3. Kind of experiment: In vitro growth inhibition of human tumor cell line, PC3. The experiment is classed as functional, cell-based. The method, boiled down:
as §1

The next experiment deals with UMUC3. Kind of experiment: In vitro growth inhibition of human tumor cell line, UMUC3. The experiment is classed as functional, cell-based. The procedure, abridged: as §1
Experiment [4] concerns A549. The experiment can be described thus: In vitro growth inhibition of human lung carcinoma cell line, A549 with low levels of folate receptors in folate deficient medium.
In experiment [5] the test system is A498. Kind of experiment: In vitro growth inhibition of human kidney carcinoma cell line, A498 with low levels of folate receptors in folate deficient medium.
Experiment [6] in a line: In vitro growth inhibition of human ovarian carcinoma cell line, IGROV with over expressed folate receptors.
The nature of experiment [7]: In vitro growth inhibition of human ovarian carcinoma cell line, IGROV with over expressed folate receptors in folate deficient medium.
Experiment [8] in a line: In vitro growth inhibition of human breast adrenocarcinoma cell line, MDA-231 with over-expressed folate receptors.
Experiment [9] can be described thus: In vitro growth inhibition of human breast adrenocarcinoma cell line, MDA-231 with over-expressed folate receptors in folate deficient medium.

In the case of `NP(=O)(OCc1ccc([N+](=O)[O-])o1)N(CCCl)CCCl` (centres undefined), the concentration for half-maximal inhibition (IC50) came out at 330 nM with A549 [1]; 1100 nM in the experiment on A498 [2]; 380 nM in the experiment on HT-29; 520 nM in experiment [3]; 130 nM with MIA PaCa-2; 1000 nM with PC-3. Also, the IC50 in the experiment on UMUC3 worked out at 55 nM.
Turning to `NP(=O)(OCc1ccc([N+](=O)[O-])o1)N(CCBr)CCBr` (centres undefined), the 50% inhibitory concentration (IC50) was determined as 270 nM with A549 [1]; 260 nM with A549 [4]; 45 nM in the experiment on A498 [2]; 29 nM in the experiment on A498 [5]; 60 nM with HT-29; 41 nM in experiment [6]. The IC50 in [7] was 49 nM; in experiment [8], 32 nM; in experiment [9], 22 nM; in the experiment with MIA PaCa-2 it was 160 nM; with PC-3 it was 250 nM; in the experiment on UMUC3, 13 nM.
